Source: article PMC5802374 (Cell, 2018)

Amino acid sequences for entries named in this document (tags omitted).
UniProt P41145, whole entry Y312W: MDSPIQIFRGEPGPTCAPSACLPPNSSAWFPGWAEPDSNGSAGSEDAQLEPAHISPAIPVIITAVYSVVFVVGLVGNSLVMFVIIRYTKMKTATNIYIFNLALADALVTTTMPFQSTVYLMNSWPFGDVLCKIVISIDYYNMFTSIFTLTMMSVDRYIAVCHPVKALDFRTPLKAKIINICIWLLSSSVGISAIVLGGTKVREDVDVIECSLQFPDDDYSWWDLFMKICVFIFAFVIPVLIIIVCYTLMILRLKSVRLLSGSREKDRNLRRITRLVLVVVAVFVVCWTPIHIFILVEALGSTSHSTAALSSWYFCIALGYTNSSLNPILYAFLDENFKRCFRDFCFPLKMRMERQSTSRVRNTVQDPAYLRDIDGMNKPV

Molecular target: KOP Y312^7.35W (Homo sapiens, UniProt P41145, Y312W)
Details: N = 3

In the case of `O=C(N[C@@H]1CC[C@@]2(O)[C@H]3Cc4ccc(O)c5c4[C@@]2(CCN3CC2CC2)[C@H]1O5)c1cccc(I)c1` [IBNtxA], the “Emax arrestin recruitment in KOP Y312^7.35W” value is reported as 52±4 and the EC50 (read-out: EC50 arrestin recruitment in KOP Y312^7.35W) is reported as 0.2 ± 0.06 nM.
